Results reported in PMC11826918, “Generation of antagonistic biparatopic anti-CD30 antibody from an agonistic antibody by precise epitope determination and utilization of structural characteristics of CD30 molecule” (Antibody Therapeutics, 2025).

Chains of the proteins cited; added tags and fusions are not shown. Residues count along the entry.
UniProt P28908, 19-595: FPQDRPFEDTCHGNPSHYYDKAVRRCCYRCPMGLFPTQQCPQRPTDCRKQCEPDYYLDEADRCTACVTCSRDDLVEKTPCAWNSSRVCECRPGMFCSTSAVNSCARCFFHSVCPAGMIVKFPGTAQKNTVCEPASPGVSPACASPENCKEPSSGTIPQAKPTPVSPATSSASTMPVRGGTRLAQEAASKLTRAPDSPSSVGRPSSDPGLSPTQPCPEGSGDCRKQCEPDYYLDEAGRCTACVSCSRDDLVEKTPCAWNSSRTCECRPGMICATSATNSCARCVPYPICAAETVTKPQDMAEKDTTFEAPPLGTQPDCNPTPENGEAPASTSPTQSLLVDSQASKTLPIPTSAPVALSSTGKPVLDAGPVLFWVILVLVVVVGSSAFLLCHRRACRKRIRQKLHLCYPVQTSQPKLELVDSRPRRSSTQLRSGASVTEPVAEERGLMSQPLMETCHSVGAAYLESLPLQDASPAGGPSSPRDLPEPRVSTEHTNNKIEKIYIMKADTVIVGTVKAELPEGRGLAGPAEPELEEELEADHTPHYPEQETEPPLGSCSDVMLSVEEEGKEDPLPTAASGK

Experiments:
[1] = target: native CD30 on KARPAS 299 cells (Homo sapiens (KARPAS 299), UniProt P28908); experiment: flow cytometry on cells; antibody on KARPAS 299 cells (native CD30), 30 min on ice; detected with anti-human IgG Fcγ-PE; settings: one partner purified
[2] = target: T1, CD30 on CD30-stably expressed NF-κB reporter Ramos-Blue cells (human, UniProt P28908-1); experiment: flow cytometry on cells; antibody in dilution series on CD30-stably expressing Ramos-Blue (CD30-RB) cells, 30 min on ice; detected with anti-human IgG Fcγ-PE; settings: one partner purified
T1 construct: human CD30 (TNFRSF8), full length, on transfected Ramos-Blue cells; also called CD30-Ramos-Blue; CD30-RB; source: Ramos-Blue cells stably transfected (pcDNA6-derived plasmid, blasticidin selection), on cells

| Binder | binding result [1] | binding result [2] |
| --- | --- | --- |
| T405 cAb (antibody, V domains shown) VH: QVQLQQIGAELVRPGASVKLSCKASGYTFNNYWINWVKQRPGQGLEWIGNIYPSDSRSNYNQKFKDKATLTVDKPSSTAYMQLSSPTSEDSAVYYCTLGSYWGQGTLVTVSA VL: not shown | binds | binds |
| T426 cAb (antibody, V domains shown) VH: EVQLQQSGAELVKPGASVKLSCTASGFNVKDTYVHWVKQRPEQGLEWIGRIDPANSDTKYDSKFQGKATTSADTSSNTAYLQLNSLTSEDTAVYYCASGTDDYYWYFDVWGAGTTVTVSS VL: DIVLTQSPASLAVSLGQRATISCRASKSVSTPAHTYMHWYQQKPGQPPKLLIYLASNLESGVPARFSGSGSGTDFTLNIHPVEVEDAATYYCQHSRVLPYTFGGGTKLEIK | binds | binds |
| T6 cAb (antibody, V domains shown) VH: QVQLKESGPGLVTPSQSLSITCTVSGFSLSKYSIHWVRQPPGRGLEWLGMIWGVENTDYNSALKSRLSISKDNSKSQVFLKMNSLQSDDTAMYYCARKDLGLYGMNYWGQGISVTVSA VL: DIVMTQSQKFMSTSVGDRVSVTCKASQNVGTNVAWYQQKPGQSPKALFYSASYRYSGVPDRFIGSGSGTVFTLTISNVQSEDLAEYFCQQYNTYPLTFGSGTKLEIE | binds | binds |
| T105 cAb (antibody, V domains shown) VH: QVTLKESGPGILQPSQTLSLTCSFSGFSLSTSGMGVSWIRQPSGKDLEWLAHIYWDDDKRYNPSLKSRLTISKDTSSNQVFLKITSVDTADTATYYCARRADGLYFYLDVWGAGTTVTVSS VL: DIVMTQSQKFMSTSVGDRVSVTCKASQNVNTNVAWYQQKPGQSPEALIYSASYRYSGVPDRFTGSGSGTDFTLTISNVQSEDLAEYFCQQYNSYPLTFGSGTKLEIK | binds | binds |
| T107 cAb (antibody, V domains shown) VH: QVQLQQSGPELVRPGVSVKISCKGSGYSFPDYPLHWVKQSHAKSLEWIGIILTYSGNTNYNQNFKGKATMTVDTSSNTAYLELARLTSEDSAIYYCATFYYGYDGAFDYWGQGTTLTVSS VL: DIVMTQSPSSLTVTAGEKVTMSCKSSQSLLNSGNQKNYLTWYQQKPGQPPKLLIHWASTRESGVPDRFTGSGSGTDFILTITSVQAEDLAVYYCQNDYTYPLTFGGGTKLELK | binds | binds |
| T25 cAb (antibody, V domains shown) VH: QVTLKESGPGILQPSQTLSLTCSFSGFSLNTSGVGVGWIRQPSGKGLEWLAHIWWDDDERYNPVLKSRLTISKDTSSNQVFLKIANVDTADSATYYCVRSMVAWFPYWGRGTLVTVSA VL: DIVMSQSPSSLAVSVGEKFTVNCKSSQSLLYSSNQKNFLAWYQQKPGQSPKLLIYWASTRESGVPDRFIGSGSGTDFTLTISSVKAEDLAVYYCQQHYRYPWTFGGGTKLEIK | binds | binds |
| AC10 cAb (antibody, V domains shown) VH: QIQLQQSGPEVVKPGASVKISCKASGYTFTDYYITWVKQKPGQGLEWIGWIYPGSGNTKYNEKFKGKATLTVDTSSSTAFMQLSSLTSEDTAVYFCANYGNYWFAYWGQGTQVTVSA VL: DIVLTQSPASLAVSLGQRATISCKASQSVDFDGDSYMNWYQQKPGQPPKVLIYAASNLESGIPARFSGSGSGTDFTLNIHPVEEEDAATYYCQQSNEDPWTFGGGTKLEIK | binds | binds |
| T104 cAb (antibody, V domains shown) VH: QIQLVQSGPELKKPGETVKISCKASGYTFTDYSMHWVKQAPGKGLKWMGWINTETGEPTYADDFKGRFAFSLETSASTAYLQINNLKNEDTATYFCTEGYVFDFWGQGTTLTVSS VL: DILLTQSPAILSVSPGERVSFSCRASRSIGTSIHWYQQRTNGSPRLLINYASESISGIPSRFSGSGSGTDFTLSINSVESEDIADYYCQQSNSWPLTFGAGTKLELK | binds | binds |
| T427 cAb (antibody, V domains shown) VH: QVQLQQPGTELVRPGASVKLSCKASGFSFTSYWMNWVKQRPGQGLEWIGMIHPSDSETRLNQKFKDRATLTVDKSSSTAYMQLSSPTSEDSAVYYCASEMDYYFAMDYWGQGTSVTVSS VL: DIVLTQSPTSLAVSLGQRATISCRASESVDSYGNSFMHWFQQKPGQPPKLLIYRASNLESGIPARFSGSGSWTDFTLTINPVEADDVATYYCQQSNEDPRTFGGGTKLEIK | binds | binds |
